Experimental data published in patent publication US6890727B2, “Diagnostic assay for Alzheimer's disease: assessment of Aβ abnormalities” (The General Hospital Corporation, priority 1994, dated 2005).

Assay: 65Zn2+ binding to immobilized peptide (dot-blot, Scatchard competition analysis)
Settings: dot-blot or blot of tryptic digest probed with ^65Zn^2+
Procedure: ^65Zn^2+ Binding Studies—Dissolved peptides (1.2 nMol, unless other wise stated) were dot-blotted onto polyvinylidene difluoride membrane (0.2-μm pore size; Pierce Chemical Co.), washed twice with chelating buffer (200 μl×100 mM NaCl, 20 mM Tris-HCl, 1 mM EDTA, pH 7.4), then five times with blocking buffer (200 μl×100 mM NaCl, 20 mM Tris-HCl, 1 mM MnCl2, pH 7.4), and then incubated (60 min, 20° C.) with ^65Zn (unless otherwise stated 130,000 cpm, […] ^65ZnCl2 in 200 μl of blocking buffer±competing metal ion chloride). The dot-blot was then washed with blocking buffer (5×200 μl), the dot excised, placed in a test tube, and assayed by γ-counting (11% efficiency). The equilibration volume for stoichiometry estimates was regarded as 6×200 μl. The 214 nm UV absorbance of the unbound flow-through was assayed to determine the total amount of peptide remaining bound onto the membrane. […] To alter the pH, the ^65Zn incubation was carried out in the presence of 100 mM buffer: MOPS (pH 6.5-7.0), MES (pH 5.0-6.0), acetate (pH 3.5-4.5). The dot-blot apparatus was washed with detergent and EDTA (50 mM) then rinsed and siliconized between use.
Aliquots of Aβ were incubated (60 min) with ^65Zn^2+ in the presence of varying concentrations of unlabeled Zn^2+ (0.01-50 μM total). Values shown are means±S.D., n≧3. […] (FIG. 1b) depicts specificity of the Zn^2+ binding site for various metals. […]

Substance | zinc binding (in words)
12-28: Aβ fragment, residues 12-28 | do not individually bind zinc
1-17: Aβ fragment, residues 1-17 | do not individually bind zinc
